Bioassay records (PubChem)
HCMV UL50-53 inh – disrupts HCMV UL50-UL53 complex binding. AID 1918969. 0.15% of 190,000 active. HTRF UL50-UL53 interaction, normalized percent inhibition. inhibition, % (no concentration beside the values); in the data active means inhibition above about 27%, passing the limit was not always enough
GIV Gai3 FP – blocks GIV peptide binding to rat Galpha-i3; P08753; Galpha-i3/FITC-GIV peptide fluorescence polarization, 90 min; stronger effect = lower value; scaled: aluminum fluoride 0%, vehicle 100%; percent of control (FP), % (no concentration beside the values); 210,000 tested, 0.42% active; AID 1224905;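 active = replicate mean at 85% of control or lower, very high polarization wells dropped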;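 also: wells of about 15 µL received 100 nL stock; the first replicate is given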
GIV Gai FP conf – confirmation of inhibitors of GIV binding to rat Galpha-i3 | fluorescence polarization, mP at 100 µM | FITC-GIV peptide binding to Galphai3, fluorescence polarization; active compounds read low | shares compounds with GIV Gai3 FP | 38% of 580 active;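 active means inhibition score of 15 or more, meaning 100 minus mean polarization as percent of control over three replicates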;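 further: lower mP means peptide displaced from Galphai3 so more inhibition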
GIV Gai AS conf – confirmation of inhibitors of GIV binding to human Galpha-i3. shares compounds with GIV Gai3 FP. AlphaScreen Galphai3-GIV binding, purified proteins, 90 min; active compounds read low. AlphaScreen counts at 100 µM. 39% of 580 active. AID 1259351;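 active means inhibition score at or above a set limit, where the score is 100 minus the three-replicate mean percent of control signal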
Of the large screens only hits and unclear results are named; the others gave an inactive call (follow-up assays come after a bar, where they were run). Compounds with a hit are over-represented: about 0.43% of the library has one in this group of screens.

Cc1cc2c(n1-c1ccc(C(=O)N3CCN(c4ccccc4)CC3)cc1)CCCCC2	none (no result: HCMV UL50-53 inh)
O=C(N/N=C/c1ccccc1O)C12CC3CC(CC(C3)C1)C2	none (no result: GIV Gai3 FP)
Cc1cc(=O)n(-c2ccc(O)cc2)[nH]1	HCMV UL50-53 inh 68.9, GIV Gai3 FP 77.0 | GIV Gai FP conf 49.4 | GIV Gai AS conf inactive
Cc1cc(=O)cc(C)n1-c1ccc(O)cc1	none (no result: GIV Gai3 FP)
C=CC1Oc2ccc(Cl)cc2NC12C=C(C(C)(C)C)C(=O)C(C(C)(C)C)=C2 (configuration not stated)	none (no result: HCMV UL50-53 inh)
Cc1ccc2nc(-c3nc4ccccc4s3)sc2c1	none
O=C(CCN1C(=O)/C(=C/c2ccc3c(c2)OCO3)SC1=S)NC1=NCCS1	GIV Gai3 FP 83.7 | GIV Gai FP conf inactive | GIV Gai AS conf inactive
O=C(CCN1C(=O)/C(=C/c2ccc3c(c2)OCO3)SC1=S)Nc1ccccc1	none (no result: GIV Gai3 FP)
O=C(O)c1cc(O)c(O)c(O)c1	none (no result: GIV Gai3 FP)
O=C(O)c1cc(O)[nH]c(=O)c1	HCMV UL50-53 inh 82.7, GIV Gai3 FP 78.3 | GIV Gai FP conf 42.1 | GIV Gai AS conf 10996
Cn1c(CCNC(=O)C2CC2)nc2cc(NC(=O)C(C)(C)C)ccc21	none
O=C(/C=C/c1ccccc1)/C=C/c1ccccc1	GIV Gai3 FP 79.7 (no result: HCMV UL50-53 inh) | GIV Gai FP conf 46.6 | GIV Gai AS conf 17701
O=C(O)/C=C/c1ccc(/C=C/C(=O)O)cc1	none
O=C1CC(C(=O)Nc2ccccc2)N=C(N2CCc3ccccc3C2)N1 (configuration not stated)	GIV Gai3 FP 81.2 | GIV Gai FP conf inactive | GIV Gai AS conf inactive
CN1CCN(C2=NC(C(=O)Nc3ccccc3)CC(=O)N2)CC1 (configuration not stated)	none
COc1cc(Cl)c(NS(=O)(=O)c2cc(-c3cc(C(F)(F)F)on3)cs2)c(OC)c1	none (no result: HCMV UL50-53 inh)
CN(N)c1cc(=O)n(C)c(=O)[nH]1	GIV Gai3 FP 63.6 | GIV Gai FP conf 49 | GIV Gai AS conf inactive
Cn1c(=O)cc(N2CCCCC2)[nH]c1=O	none
CCN1CC(=O)N(c2ccc(C)cc2)[C@@H]2CS(=O)(=O)C[C@@H]21	none
O=C(CSCc1nc2ccccc2c(=O)n1-c1cccc(C(F)(F)F)c1)Nc1ccccc1	none (no result: HCMV UL50-53 inh)
O=c1ccn(-c2cccc(F)c2)nc1-c1nc(-c2ccc(Br)cc2)no1	none (no result: HCMV UL50-53 inh)
CC1=NN(c2cc(S(=O)(=O)O)c3cccc(S(=O)(=O)O)c3c2)C(=O)C1	GIV Gai3 FP 59.2 (no result: HCMV UL50-53 inh) | GIV Gai FP conf inactive | GIV Gai AS conf 2889
CC1=NN(c2cccc(C(F)(F)F)c2)C(=O)C1	none (no result: GIV Gai3 FP)
C[C@H](O)C(=O)C1=Nc2c(nc(N)[nH]c2=O)NC1	GIV Gai3 FP 72.8 | GIV Gai FP conf inactive | GIV Gai AS conf 29102
CC(O)C(O)[C@H]1CNc2nc(N)[nH]c(=O)c2N1 (some centres not stated)	none
O=S(=O)(c1cccc2nsnc12)N1CCC(Cc2ccccc2)CC1	none (no result: HCMV UL50-53 inh)
O=S(=O)(c1cccc2nonc12)N1CCC(Cc2ccccc2)CC1	none (no result: HCMV UL50-53 inh) | GIV Gai FP conf inactive | GIV Gai AS conf inactive
Cc1cc(C(=O)N2CCCCC2)c2c(=O)n(CC(=O)Nc3ccc(F)cc3F)c(=O)n(C)c2n1	none
COc1ccc(C(=O)NC(c2ccc(C)cc2)c2cc(Cl)c3cccnc3c2O)cc1 (configuration not stated)	GIV Gai3 FP 80.3 (no result: HCMV UL50-53 inh) | GIV Gai FP conf 61 | GIV Gai AS conf inactive
COc1ccc(C(=O)NC(c2ccccc2Cl)c2cc(Cl)c3cccnc3c2O)cc1 (configuration not stated)	none (no result: HCMV UL50-53 inh)
S=C(NCC1CCCO1)N1CCn2c(nc3ccccc32)C1 (configuration not stated)	none
CCCN(CCC)S(=O)(=O)c1ccc(C(=O)Nc2ccc3c4c(cccc24)C(=O)N3CC)cc1	none (no result: HCMV UL50-53 inh)
C=CCN(CC=C)S(=O)(=O)c1ccc(C(=O)Nc2ccc3c4c(cccc24)C(=O)N3CC)cc1	GIV Gai3 FP 77.8 (no result: HCMV UL50-53 inh) | GIV Gai FP conf inactive | GIV Gai AS conf inactive
Cc1ccc2[nH]c(=O)c(CN(CCCO)C(=O)NC3CCCCC3)cc2c1	none
CC(C)(C)C1CCc2oc3ccc(NS(=O)(=O)c4ccc5ccccc5c4)cc3c2C1 (configuration not stated)	none (no result: HCMV UL50-53 inh)
CCN(CCN(C)C)c1ncc(C(=O)O)cc1NS(=O)(=O)c1ccc(F)c(F)c1	GIV Gai3 FP 60.6 | GIV Gai FP conf 36.5 | GIV Gai AS conf inactive
CCN(CCN(C)C)c1ncc(NS(=O)(=O)c2cc(C)c(C)cc2C)cc1C(=O)O	GIV Gai3 FP 58.3 | GIV Gai FP conf 42.6 | GIV Gai AS conf inactive
CCCCN(C)c1ncc(C(=O)O)cc1NS(=O)(=O)c1cc(F)ccc1F	none
CN(C)c1ncc(C(=O)O)cc1NS(=O)(=O)c1ccccc1	GIV Gai3 FP 49.2 | GIV Gai FP conf 36.2 | GIV Gai AS conf 8377
CCN(CCN(C)C)c1ncc(C(=O)O)cc1NS(=O)(=O)c1ccc(C(C)C)cc1	GIV Gai3 FP 60.3 | GIV Gai FP conf 41 | GIV Gai AS conf inactive
CC(C)c1ccc(S(=O)(=O)Nc2cc(C(=O)O)ccc2N(C)C)cc1	none
CN1CCN(c2ccc(C(=O)O)cc2NS(=O)(=O)c2ccccc2)CC1	none
CCN(CC)c1ncc(NS(=O)(=O)c2cc(C)c(C)cc2C)cc1C(=O)O	none
O=C(CCC(=O)N1CCc2cc(S(=O)(=O)NC3CC3)ccc21)N1CCCCC1	none
COc1cc2c(=O)[nH]c3c(C(N)=O)sc(=S)n3c2cc1OC	none
COC(=O)CN1C(=O)CSc2ccc(S(=O)(=O)NC3CCCC3)cc21	none
Cc1cc(C)cc(S(=O)(=O)Nc2cc(C(=O)O)cnc2N(CC(C)C)CC(C)C)c1	none
CCN(CC)c1ncc(C(=O)O)cc1NS(=O)(=O)c1c(C)cc(C)cc1C	GIV Gai3 FP 80.7 | GIV Gai FP conf inactive | GIV Gai AS conf inactive
O=C(NCc1ccc2c(c1)OCO2)C1CCCN(c2ncc(-c3ccccc3)cn2)C1 (configuration not stated)	none (no result: HCMV UL50-53 inh)
CCSc1nnc2c(n1)OC(c1ccc(C)cc1)Nc1ccccc1-2 (configuration not stated)	none
CCSc1nnc2c(n1)OC(c1c(OC)ccc3ccccc13)Nc1ccccc1-2 (configuration not stated)	GIV Gai3 FP -4.5 | GIV Gai FP conf inactive | GIV Gai AS conf 32956
CCSc1nnc2c(n1)OC(c1ccc(Cl)cc1)Nc1ccccc1-2 (configuration not stated)	GIV Gai3 FP 78.1 | GIV Gai FP conf inactive | GIV Gai AS conf inactive
CCCSc1nnc2c(n1)OC(c1ccc(OCC(=O)O)cc1)Nc1ccccc1-2 (configuration not stated)	none (no result: HCMV UL50-53 inh)
CCCSc1nnc2c(n1)OC(c1c(OC)ccc3ccccc13)Nc1ccccc1-2 (configuration not stated)	none
CCCSc1nnc2c(n1)OC(c1ccc(F)cc1)Nc1ccccc1-2 (configuration not stated)	GIV Gai3 FP 65.8 | GIV Gai FP conf inactive | GIV Gai AS conf inactive
CCOC(=O)CC(=O)CSc1nc2cc(C(=O)NCc3ccco3)ccc2c(=O)n1-c1ccc(OC)c(OC)c1	none (no result: HCMV UL50-53 inh)
COc1ccc(/C=C/C(=O)Nc2c(O)cccc2C(=O)O)cc1OC	none (no result: GIV Gai3 FP)
CCOC(=O)c1c(-c2ccccc2)cn2ccccc12	none
CCOC(=O)c1c(-c2ccccc2)c[nH]c1N	GIV Gai3 FP 59.8 | GIV Gai FP conf 38.6 | GIV Gai AS conf 19838
